Experimental data from US9265844B2, “Protease degradable polypeptides and uses thereof” (THE METHODIST HOSPITAL SYSTEM, priority 2010, dated 2016).

The chains behind the UniProt entries cited, without tags or fusion partners. Residues count along the entry.
UniProt P07339, 65-412: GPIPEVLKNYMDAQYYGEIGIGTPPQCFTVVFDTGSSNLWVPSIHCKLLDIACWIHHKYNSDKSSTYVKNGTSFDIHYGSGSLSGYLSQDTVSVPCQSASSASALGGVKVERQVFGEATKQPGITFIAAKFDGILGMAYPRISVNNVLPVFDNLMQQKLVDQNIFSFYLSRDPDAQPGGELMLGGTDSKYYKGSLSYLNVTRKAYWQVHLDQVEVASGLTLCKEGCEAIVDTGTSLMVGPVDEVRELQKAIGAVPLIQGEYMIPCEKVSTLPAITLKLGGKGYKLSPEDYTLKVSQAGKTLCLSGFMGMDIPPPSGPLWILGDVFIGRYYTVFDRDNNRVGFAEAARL

Columns and labels:
Cath D = Cath D (Homo sapiens, UniProt P07339); experiment: Inhibition of substrate e hydrolysis by pepstatin A (Cath D); assay type: biochemical; details: 1 μL of 1 mM pepstatin A/methanol
Method: (§1) Stock solution of pepstatin A was prepared by dissolving 2 mg pepstatin A in 1 mL of 10% (v/v) acetic acid in methanol. Substrate e solution (10 μL, 200 μM) in 50 mM sodium acetate buffer (pH 4) containing 150 mM NaCl, 46 pmol of Cathepsin E or D was added followed by 1 μL of 1 mM pepstatin A/methanol. Two sets of control experiments were performed simultaneously by replacing the enzymes with assay buffer and by using methanol instead of pepstatin A/methanol. All assays were performed in triplicate in 96 well assay plates and the change in the fluorescence intensity was monitored over time using λex=340 nm and λem=405 nm at 37° C.

Cath E = target: T1, Cath E (Homo sapiens, UniProt P14091); experiment: Inhibition of substrate e hydrolysis by pepstatin A (Cath E); assay type: biochemical; set-up: purchased Calbiochem, EMD Bioscience (Gibbstown, N.J.); details: 1 μL of 1 mM pepstatin A/methanol
T1 sequence (P14091 54-396): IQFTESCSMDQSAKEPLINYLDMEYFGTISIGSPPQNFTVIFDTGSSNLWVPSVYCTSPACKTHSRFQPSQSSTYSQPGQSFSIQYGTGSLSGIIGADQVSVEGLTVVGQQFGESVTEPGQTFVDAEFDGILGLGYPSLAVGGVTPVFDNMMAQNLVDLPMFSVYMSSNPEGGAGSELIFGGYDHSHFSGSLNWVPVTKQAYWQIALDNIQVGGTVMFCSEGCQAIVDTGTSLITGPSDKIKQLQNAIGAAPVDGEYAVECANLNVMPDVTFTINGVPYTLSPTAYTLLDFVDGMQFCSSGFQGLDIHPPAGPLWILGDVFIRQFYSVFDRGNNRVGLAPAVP
Method: as §1

In the case of `CC(C)CC(=O)N[C@H](C(=O)N[C@H](C(=O)N[C@@H](CC(C)C)[C@@H](O)CC(=O)N[C@@H](C)C(=O)N[C@@H](CC(C)C)[C@@H](O)CC(=O)O)C(C)C)C(C)C` [pepstatin A], the “inhibition of fluorescence signal of substrate e” value (Cath D) is reported as “complete inhibition” and the “inhibition of fluorescence signal of substrate e” value (Cath E) is reported as “complete inhibition”.
